By ED50 is commonly meant the dose at which the effect has come halfway, by size or by number of responders.

Where only a bound is given, the exact number is not on record here.

The assay deals with Mus musculus. Briefly: Anti-nociceptive activity (Analgesia reversed by 3 mg/kg of naloxone) after administration through the subcutaneous route to female mice.

`C[C@@H]([C@H](C)N(C)C(=O)Cc1ccc(Cl)c(Cl)c1)N1CCCC1`: the ED50 was 4.4 mg/kg.

For `C[C@@H](CN1CCCC1)N(C)C(=O)Cc1ccc(Cl)c(Cl)c1`, the ED50 turned out to be 0.67 mg/kg. Compared with the last compound, the ED50 is about 6.6-fold lower.

The compound `CC(C)[C@@H](CN1CCCC1)N(C)C(=O)Cc1ccc(Cl)c(Cl)c1` had an ED50 of 0.05 mg/kg.

Consider `C[C@@H](CN(C)C(=O)Cc1ccc(Cl)c(Cl)c1)N1CCCC1`, for which the ED50 was > 10 mg/kg.

As for `CN(C(=O)Cc1ccc(Cl)c(Cl)c1)C(C)(C)CN1CCCC1`, the ED50 is > 10 mg/kg.

For `CN(C(=O)Cc1ccc(Cl)c(Cl)c1)[C@H](CN1CCCC1)C(C)(C)C`, the ED50 was 0.03 mg/kg.

The values are drawn from ChEMBL document CHEMBL1125719, “2-(3,4-Dichlorophenyl)-N-methyl-N-[2-(1-pyrrolidinyl)-1-substituted- ethyl]-acetamides: the use of conformational analysis in the development of a novel series of potent opioid kappa agonists” (1991).
